In this experiment the target is Serine/threonine-protein kinase B-raf (Homo sapiens, UniProt P15056). In words: Inhibition of B-Raf.

By UniProt entry, the sequences of proteins in these tests, tags left out.
UniProt P15056, whole entry: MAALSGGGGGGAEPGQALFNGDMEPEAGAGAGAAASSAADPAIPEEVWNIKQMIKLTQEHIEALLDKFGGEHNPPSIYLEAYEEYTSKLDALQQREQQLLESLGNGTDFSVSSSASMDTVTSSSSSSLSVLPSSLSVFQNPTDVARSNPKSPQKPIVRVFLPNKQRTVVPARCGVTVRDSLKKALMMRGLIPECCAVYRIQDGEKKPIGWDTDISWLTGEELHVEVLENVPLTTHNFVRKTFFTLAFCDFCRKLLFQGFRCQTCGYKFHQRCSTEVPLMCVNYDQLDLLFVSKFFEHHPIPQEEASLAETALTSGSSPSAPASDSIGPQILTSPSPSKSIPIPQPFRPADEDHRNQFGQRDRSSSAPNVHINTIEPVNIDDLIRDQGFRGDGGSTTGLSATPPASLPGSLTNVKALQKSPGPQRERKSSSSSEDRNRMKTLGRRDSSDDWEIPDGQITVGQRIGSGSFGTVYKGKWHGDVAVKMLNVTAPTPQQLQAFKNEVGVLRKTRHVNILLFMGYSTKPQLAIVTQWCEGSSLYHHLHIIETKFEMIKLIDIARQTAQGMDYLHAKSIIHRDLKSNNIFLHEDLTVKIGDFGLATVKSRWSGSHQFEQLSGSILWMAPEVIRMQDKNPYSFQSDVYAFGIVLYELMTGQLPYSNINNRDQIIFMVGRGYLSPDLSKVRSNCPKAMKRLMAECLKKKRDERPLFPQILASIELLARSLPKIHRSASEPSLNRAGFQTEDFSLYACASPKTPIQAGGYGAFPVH

The text below walks through data of ChEMBL document CHEMBL1777745, “Non-oxime pyrazole based inhibitors of B-Raf kinase” (Bioorg Med Chem Lett, 2011).

For orientation: IC50 means the concentration that inhibits the measured activity by half. Low values mean greater potency, high ones weaker potency.

On to `c1cc(-c2nn(C3CCNCC3)cc2-c2ccc3c(c2)Cc2c[nH]nc2-3)ccn1`, for which the IC50 worked out at 3 nM.
